From ChEMBL document CHEMBL1124573, “Alterations in the stereochemistry of the kappa-selective opioid agonist U50,488 result in high-affinity sigma ligands” (1989)

Chains of the proteins cited; added tags and fusions are not shown. Lines headed by an entry give the natural chain unless they say otherwise; changes in a name come on top.
UniProt P41144: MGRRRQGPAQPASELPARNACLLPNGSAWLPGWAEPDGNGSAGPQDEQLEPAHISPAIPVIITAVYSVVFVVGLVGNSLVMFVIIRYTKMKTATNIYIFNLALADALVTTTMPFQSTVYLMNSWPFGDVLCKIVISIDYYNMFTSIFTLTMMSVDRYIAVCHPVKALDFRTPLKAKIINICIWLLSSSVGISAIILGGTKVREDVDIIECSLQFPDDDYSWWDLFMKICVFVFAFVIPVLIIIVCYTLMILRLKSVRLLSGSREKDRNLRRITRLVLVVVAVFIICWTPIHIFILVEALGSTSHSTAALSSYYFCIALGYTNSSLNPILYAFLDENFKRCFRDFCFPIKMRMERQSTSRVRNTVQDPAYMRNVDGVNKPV
UniProt P61169, whole entry, looked up: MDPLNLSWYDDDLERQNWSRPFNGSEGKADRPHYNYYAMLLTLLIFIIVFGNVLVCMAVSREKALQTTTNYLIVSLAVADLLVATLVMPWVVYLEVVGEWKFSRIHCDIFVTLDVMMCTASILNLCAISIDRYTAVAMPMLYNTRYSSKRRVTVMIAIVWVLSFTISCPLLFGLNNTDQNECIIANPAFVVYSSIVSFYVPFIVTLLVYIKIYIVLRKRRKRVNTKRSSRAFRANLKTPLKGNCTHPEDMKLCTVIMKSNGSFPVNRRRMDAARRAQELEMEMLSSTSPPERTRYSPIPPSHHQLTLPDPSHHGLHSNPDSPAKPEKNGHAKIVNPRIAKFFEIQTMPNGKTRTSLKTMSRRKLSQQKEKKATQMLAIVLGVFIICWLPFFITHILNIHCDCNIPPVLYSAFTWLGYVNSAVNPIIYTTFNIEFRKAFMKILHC

Tests used:
[1] = target: T1, Kappa-type opioid receptor (Cavia porcellus, UniProt P41144); experiment: Compound was evaluated for binding affinity towards kappa opioid receptor using [3H]-BREM in guinea pig ileum
[2] = target: T1, Kappa-type opioid receptor; experiment: Compound was evaluated for binding affinity towards kappa opioid receptor using [3H](-)-U-69,593 in guinea pig ileum
D(2) dopamine receptor = D(2) dopamine receptor (Rattus norvegicus, UniProt P61169); experiment: Compound was evaluated for binding affinity towards Dopamine receptor D2 using [3H]SULP in rat
[3] = target: T1, Kappa-type opioid receptor; experiment: Compound was evaluated for binding affinity towards Opioid receptor kappa 1 using [3H]BREM in guinea pig ileum

Structure (SMILES)	Ki [1] [nM]	Ki [2] [nM]	Ki (D(2) dopamine receptor) [nM]	Ki [3] [nM]
CN(C(=O)Cc1ccc(Cl)c(Cl)c1)[C@H]1CCCC[C@@H]1N1CCCC1	44	0.89		
CN(C(=O)Cc1ccc(Cl)c(Cl)c1)[C@@H]1CCCC[C@@H]1N1CCCC1			14000	
CN(C(=O)Cc1ccc(Cl)c(Cl)c1)[C@H]1CCCC[C@H]1N1CCCC1		167	3730	
CN(C(=O)Cc1ccc(Cl)c(Cl)c1)C1CCCCC1N1CCCC1 (stereo not drawn)	1300	299		109
